# An excerpt weighted towards active compounds, which were near 2.3% of everything screened.
# NRP1-CendR mod = alters CendR peptide binding to human NRP-1. hit rate 0.85% among 360,000. O14786. AID 602438. FAM-RPARPAR peptide binding to NRP-1, fluorescence polarization. inhibition, % at 25 µM;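 active means inhibition or corrected inhibition above about 18%, plus a signal ratio from 0.5 to 1.5, limit read from the data, passing the limit was not always enough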
# ARFGAP1 inh = rat ARFGAP1 inhibition | inhibition, % at 16.5 µM | hit rate 0.26% among 360,000 | Arfgap1-stimulated ARF1 GTP hydrolysis, GDP FP detection;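 active means inhibition above a per-plate limit, mean inhibition of low control wells plus 3 SD, cut at about 25% in these data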
#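 Replicates: Single well per compound | Assay system: Truncated rat Arfgap1 GAP domain | Control set: No-Arfgap1 wells (100%) versus DMSO full-reaction wells (0%) | Times: Enzyme reaction 120 min at 25 °C after 20 min preincubation | Reagent: Human ARF1(Δ1-17)-GTP substrate | Measured by: Tracer-displacement fluorescence polarization with EDTA stop, 620/688 nm | Measure: Percent inhibition of Arfgap1-stimulated GTP hydrolysis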
# ASAP1 inh = blocks human ASAP1-stimulated Arf1 GTP hydrolysis | Q9ULH1 | GDP FP detection | hit rate 0.19% among 360,000 | inhibition, % at 16.5 µM; in the data active means inhibition above about 25%
# Yeast UUG start = modulators of yeast start codon fidelity, primary screen, whole organism, S. cerevisiae, single point, plate reader; S. cerevisiae UUG-firefly luciferase reporter, luminescence/redox ratio; activity score, % at 18.7 µM; actives 0.13% (n = 350,000); AID 602363, 2012;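 active = replicate mean at a twofold rise or more, about +100% in these data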;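 also: firefly luciferase made from a UUG start codon reports start codon fidelity; reporter light over untreated wells divided by growth signal over untreated wells; some hits fall short of that in this replicate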
# MC4R antag cAMP = antagonists of human melanocortin 4 receptor (MC4R). MC4R-expressing cells, MTII-stimulated cAMP, LANCE TR-FRET. inhibition, % at 6.5 µM. hit rate 0.48% among 360,000;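 active means inhibition above its plate's cutoff, the mean of tested wells on that plate plus 3 SD, cut at about 29% in these data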
#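 Material – human MC4R-expressing U2OS cells · Repeats – no replicates · Detection – TR-FRET with Eu-cAMP and labeled anti-cAMP, 671 nm · Times – compound 30 min, challenge 1 h, detection 1 h · Compound – single nominal compound dose of 6.5 µM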
# MC4R barr agon = human MC4R agonism via beta-arrestin; P32245; U2OS MC4R beta-arrestin complementation, luminescence; percent of melanotan II response, DMSO zero; activation, % at 8.9 µM; hit rate 0.98% among 360,000;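 active means activation above a per-plate cutoff, the mean activation of sample wells on that plate plus 3 SD, cut at about 8% in these data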
# U2OS cAMP counter = U2OS forskolin cAMP inhibition counter-screen. hit rate 26% among 1,600. inhibition, % at 6.5 µM. parental U2OS, LANCE TR-FRET. AID 602193. shares compounds with MC4R antag cAMP;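 active means mean inhibition over triplicates above the low-control well mean plus 3 SD, set per campaign, cut at about 13% in these data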;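 further: signal is single emission at 671 nm which falls as cellular cAMP rises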
# MC4R antag conf = human MC4R cAMP antagonism confirmation. hit rate 27% among 1,600. inhibition, % at 6.5 µM. MC4R-expressing cells, MTII-stimulated cAMP, TR-FRET. shares compounds with MC4R antag cAMP; in the data active means inhibition above about 29%
# Hits are given with their value; n = inactive; x = no result given.
SMILES,NRP1-CendR mod,ARFGAP1 inh,ASAP1 inh,Yeast UUG start,MC4R antag cAMP,MC4R barr agon,U2OS cAMP counter,MC4R antag conf
CN1c2ccc(-c3ccc(C#N)cc3)cc2[C@H]2[C@H](CCN2C(=O)NC2CCCC2)[C@@H]1CO,x,x,x,n,x,x,x,x
COc1ccc(CC(=O)Oc2ccc(Br)cc2F)cc1S(=O)(=O)N1CCOCC1,n,n,n,n,n,n,x,x
COc1ccc(CC(=O)Oc2ccc(F)c(F)c2)cc1S(=O)(=O)N1CCOCC1,n,n,n,n,35,n,n,n
O=[N+]([O-])c1cc(S(=O)(=O)C(F)(F)F)ccc1Sc1nc2ccccc2s1,n,n,n,n,56,n,n,43
O=[N+]([O-])c1cc(S(=O)(=O)C(F)(F)F)ccc1Sc1nc2ccccc2[nH]1,n,n,n,x,30,n,n,40
CS(=O)(=O)c1ccc(Sc2nc3ccccc3[nH]2)c([N+](=O)[O-])c1,n,n,n,n,n,n,x,x
C[C@H]1CN([C@@H](C)CO)C(=O)c2cc(NC(=O)Cn3cnnn3)ccc2O[C@@H]1CN(C)S(C)(=O)=O,x,x,x,n,x,x,x,x
CC1=NOC(=O)/C1=C\c1ccc(-c2ccccc2Br)o1,n,n,n,x,62,n,n,n
CC1=NOC(=O)/C1=C\c1ccc(-c2cccc(Cl)c2)o1,n,x,x,n,n,n,x,x
COc1ccc(-c2csc3ncnc(N4CCN(c5cccc(C)c5C)CC4)c23)cc1,n,n,n,n,n,n,x,x
COc1ccc(-c2csc3ncnc(N4CCN(c5ccccc5Cl)CC4)c23)cc1,n,n,n,n,29,n,n,29
CCC(=O)N1[C@H](CO)[C@H](c2ccc(-c3ccc(F)cc3)cc2)[C@@H]1CNC(C)=O,x,x,x,n,x,x,x,x
CC[N+]1(C)CCC(O)(c2ccc(OC)cc2)C(C(=O)c2ccc(OC)cc2)C1 (stereo unspecified),n,n,n,x,29,n,17,n
C[C@@H]1CCCCO[C@H](CN(C)Cc2ccc3c(c2)OCO3)[C@@H](C)CN([C@@H](C)CO)C(=O)c2cc(NS(C)(=O)=O)ccc2O1,x,x,x,n,x,x,x,x
C[C@@H]1CN([C@H](C)CO)C(=O)Cc2cc(NC(=O)Cn3cnnn3)ccc2O[C@H]1CN(C)Cc1ccccc1,x,x,x,n,x,x,x,x
C[C@@H]1CN([C@@H](C)CO)C(=O)c2cc(NS(=O)(=O)c3cn(C)cn3)ccc2O[C@@H](C)CCCCO[C@@H]1CN(C)S(=O)(=O)c1ccc(Cl)cc1,x,x,x,n,x,x,x,x
Cc1ccsc1C1C(C#N)=C(N)Oc2n[nH]c(C)c21 (stereo unspecified),n,n,n,n,29,n,n,n
COc1cccc(C(=O)Nc2ccc(S(=O)(=O)Nc3cc(C)nc(C)n3)cc2)c1,n,n,n,x,29,n,n,n
COc1ccc(C(=O)Nc2ccc(S(=O)(=O)Nc3cc(C)nc(C)n3)cc2)cc1,n,n,n,x,n,n,x,x
OC[C@H]1Nc2ccc(-c3cccc(F)c3)cc2[C@@H]2[C@H]1CCN2Cc1ccc(F)cc1,x,x,x,n,x,x,x,x
CCC(=O)N1C[C@@H](C)[C@H](OC)CN(C)C(=O)c2cc(NC(=O)Nc3ccccc3)ccc2OC[C@H]1C,x,x,x,n,x,x,x,x
CC(=O)N1C[C@H]2[C@@H](c3ccccc31)[C@@H](CO)N2C(=O)CC1CC1,x,x,x,n,x,x,x,x
C/C(=N\NC(=O)c1ccc(Cl)c(Cl)c1)c1ccccn1,n,n,n,n,29,n,20,n
C/C(=N\NC(=O)c1ccccc1Cl)c1ccccn1,n,n,n,n,29,n,29,n
C/C(=N\NC(=O)c1cccc2ccccc12)c1ccccn1,n,n,n,n,n,n,x,x
SMILES,NRP1-CendR mod,ARFGAP1 inh,ASAP1 inh,Yeast UUG start,MC4R antag cAMP,MC4R barr agon,U2OS cAMP counter,MC4R antag conf
C[C@H](CO)N1C[C@H](C)[C@H](CN(C)S(=O)(=O)c2ccc(F)cc2)Oc2c(NC(=O)C3CC3)cccc2C1=O,x,x,x,n,x,x,x,x
O=C(COC(=O)[C@H](Cc1ccccc1)NC(=O)c1ccco1)NCc1ccccc1,n,n,n,n,29,n,n,n
CN(C)C(=O)COC(=O)[C@H](Cc1ccccc1)NC(=O)c1ccco1,n,n,n,n,29,n,14,n
COCC(=O)Nc1ccc2c(c1)C(=O)N(C)[C@H]1CC[C@@H](CC(=O)Nc3ccccc3)O[C@H]1CO2,x,x,x,n,x,x,x,x
Cc1ccccc1-c1ccc([C@H]2[C@H]3CN(S(=O)(=O)c4cn(C)cn4)CCCCN3[C@H]2CO)cc1,x,x,x,n,x,x,x,x
O=C(Cn1ncc(Cl)c(Cl)c1=O)N1CCN(S(=O)(=O)c2ccc3ccccc3c2)CC1,n,n,n,n,50,n,24,51
c1ccc(-c2ccc(-c3cnc4n3CCCCC4)cc2)cc1,n,n,n,n,n,n,x,x
Cc1ccc(-c2cnc3n2CCCCC3)cc1,n,n,n,x,33,n,n,n
CO[C@H]1CN(C)C(=O)c2cc(NC(=O)c3cc(C)on3)ccc2OC[C@H](C)N(C(C)=O)C[C@@H]1C,x,x,x,n,x,x,x,x
CC(C)(C)C(=O)COC(=O)CNC(=O)c1ccc(Oc2ccccc2)cc1,n,n,n,n,29,n,n,n
COc1cccc2cc(C(=O)C3=C(O)C(=O)N(Cc4ccco4)C3c3cccnc3)oc12 (stereo unspecified),n,x,x,n,29,n,27,44
O=C(C1=C(O)C(=O)N(Cc2ccco2)C1c1cccnc1)c1cc2ccccc2o1 (stereo unspecified),n,n,n,x,n,n,x,x
O=C(OCCN1CCCCC1)c1ccccc1Br,n,n,n,n,30,n,n,n
COc1cc(/C=N/NC(=O)C2COc3ccccc3O2)ccc1O (stereo unspecified),n,n,n,x,n,n,x,x
COc1ccc(/C=N/NC(=O)C2COc3ccccc3O2)cc1OC (stereo unspecified),n,n,n,x,29,n,n,n
C[C@@H]1CCCCO[C@@H](CN(C)C(=O)Nc2ccc3c(c2)OCO3)[C@H](C)CN([C@H](C)CO)C(=O)c2cc(NC(=O)Cc3ccccc3)ccc2O1,x,x,x,n,x,x,x,x
O=C(O)C1Cc2c([nH]c3ccccc23)C(c2ccc3c(c2)OCO3)N1 (stereo unspecified),n,n,n,n,n,n,x,x
COc1ccc(C2NC(C(=O)O)Cc3c2[nH]c2ccccc32)cc1CN1CCN(c2ccc(F)cc2)CC1 (stereo unspecified),n,n,n,n,30,n,n,n
C[C@@H]1CN([C@H](C)CO)S(=O)(=O)c2ccc(-c3cncnc3)cc2O[C@@H]1CN(C)Cc1cccnc1,x,x,x,n,x,x,x,x

# Screening results as filed in PubChem BioAssay.
